Reference: patent publication US20140100172A1

Chains of the proteins cited; added tags and fusions are not shown.
UniProt P61073, whole entry: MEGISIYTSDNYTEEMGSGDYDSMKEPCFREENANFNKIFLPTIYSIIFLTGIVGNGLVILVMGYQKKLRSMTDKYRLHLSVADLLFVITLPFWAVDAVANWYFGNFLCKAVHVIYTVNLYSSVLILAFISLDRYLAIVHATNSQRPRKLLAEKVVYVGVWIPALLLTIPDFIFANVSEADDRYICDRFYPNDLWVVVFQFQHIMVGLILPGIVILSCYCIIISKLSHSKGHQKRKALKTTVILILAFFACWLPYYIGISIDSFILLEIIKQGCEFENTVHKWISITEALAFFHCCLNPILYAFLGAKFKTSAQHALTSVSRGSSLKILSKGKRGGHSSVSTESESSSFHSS

Biological target: human chemokine receptor type 4 (CXCR4) (human) (UniProt P61073)
Experiment: competition with 125I-CPCR4 tracer on CXCR4-expressing cells

Substance	IC50 [nM]
Dap(FB)-8k, cyc[D-Tyr-Arg-Nal-Dap(FB)] (peptide)	350
Dap(FP)-8k, cyc[D-Tyr-Arg-Nal-Dap(FP)] (peptide)	140
cyc[D-Tyr-(Me)D-Orn(FB)-Arg-Nal-Gly] (peptide)	8.7
cyc[D-Tyr-Orn(Ac)-Arg-Nal-Gly] (peptide)	29
cyc[D-Tyr-Orn(Ahx2)-Arg-Nal-Gly] (peptide)	947
cyc[D-Tyr-Orn(Ahx3)-Arg-Nal-Gly] (peptide)	227
cyc[D-Tyr-Orn(Am)-Arg-Nal-Gly] (peptide)	35
cyc[D-Tyr-Orn(Bz)-Arg-Nal-Gly] (peptide)	155
cyc[D-Tyr-Orn(FP)-Arg-Nal-Gly] (peptide)	35
cyc[D-Tyr-Orn(Me)-Arg-Nal-Gly] (peptide)	105
cyc[D-Tyr-Orn(Me, FB)-Arg-Nal-Gly] (peptide)	78
cyc[Nal-Gly-D-Tyr-Cit-Arg] (peptide)	35
